Experimental data: paper PMC3306502 (2012)

System: LNCaP/AR(cs) xenograft tumors
Settings: murine xenograft model of human CRPC

## CNC(=O)c1ccc(N2C(=S)N(c3cnc(C#N)c(C(F)(F)F)c3)C(=O)C23CCC3)cc1F [ARN-509]
  dose achieving maximal therapeutic response: 30 mg/kg/day
